ChEMBL document CHEMBL1144937, “A specific mechanism of nonspecific inhibition” (J Med Chem, 2003)

Protein sequences, listed by entry. Tags and fused reporters are not part of them. Lines headed by an entry give the natural chain unless they say otherwise; changes in a name come on top.
UniProt P00811: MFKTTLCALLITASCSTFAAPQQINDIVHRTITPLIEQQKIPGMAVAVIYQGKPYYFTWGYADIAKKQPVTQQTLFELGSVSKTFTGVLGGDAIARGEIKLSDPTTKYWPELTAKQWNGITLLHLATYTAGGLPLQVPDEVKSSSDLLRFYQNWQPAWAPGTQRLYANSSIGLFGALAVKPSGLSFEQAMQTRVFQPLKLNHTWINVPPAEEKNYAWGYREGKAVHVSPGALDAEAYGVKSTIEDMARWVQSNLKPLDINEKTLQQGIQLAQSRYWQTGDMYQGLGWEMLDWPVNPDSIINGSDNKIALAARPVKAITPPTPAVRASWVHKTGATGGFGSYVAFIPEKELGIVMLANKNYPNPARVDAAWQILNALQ

Columns and labels:
[1] = target: Beta-lactamase (Escherichia coli K-12) (UniProt P00811); test: Percentage inhibition against beta-Lactamase in the presence of detergent 0.01% Triton X-100 was determined at a concentration of 100 uM
[2] = target: Beta-lactamase (Escherichia coli K-12) (UniProt P00811); test: Percentage inhibition against beta-Lactamase in the absence of detergent Triton X-100 was determined at a concentration of 100 uM

In the case of `COC(=O)C1=C(C)NC(C)=C(C(=O)OCCN(C)Cc2ccccc2)C1c1cccc([N+](=O)[O-])c1` (configuration not stated) [NICARDIPINE], the inhibition [1] is reported as 33% and the inhibition [2] is reported as 81%.
